Test results as given in PubChem BioAssay AID602440 (Sanford-Burnham Center for Chemical Genomics, 2012).
Only a part is listed here, and it is no random draw. The source made the active and inactive calls. Rule as the data show it: active = inhibition mostly above about 40% (no sharp cut-off); inactive = mostly below about 27%.

Sequences of proteins named here, by UniProt entry; tags and fusion partners are left off.
UniProt Q96LD8, whole entry: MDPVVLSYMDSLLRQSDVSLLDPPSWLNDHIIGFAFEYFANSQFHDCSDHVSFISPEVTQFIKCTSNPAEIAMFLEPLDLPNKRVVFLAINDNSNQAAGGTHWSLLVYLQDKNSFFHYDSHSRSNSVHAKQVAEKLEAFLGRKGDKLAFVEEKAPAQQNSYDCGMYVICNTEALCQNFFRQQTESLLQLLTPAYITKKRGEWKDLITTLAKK

Target: Sentrin-specific protease 8 (Homo sapiens) (UniProt Q96LD8)
Assay: blockers of SENP8 deneddylase activity – biochemical, fluorescence, Nedd8 protein substrate, uHTS, primary screen (AID 602440)
Conditions: recombinant SENP8, Nedd8 substrate fluorescence; at 20 µM; hits give high values

Which inhibition does the source give for O=C(NCC1(N2CCOCC2)CCCCC1)c1cc2ccccc2o1 here?
The inhibition was inactive: -18.2%.

How did the inhibition turn out when Cc1cc(C)cc(N(C(=O)c2ccccc2)C2CCN(C(=O)OC(C)(C)C)CC2)c1 was run?
Its inhibition is inactive: 16.4%.

O=c1[nH]c2ccccc2n1C1CCN(C(c2ccccc2OC(F)(F)F)c2nnnn2C2CCCCC2)CC1 (stereo unspecified) was tested. Which inhibition did it give?
Its inhibition is inactive: 28.2%.

How did the inhibition turn out when O=C(NCC1(N2CCCCC2)CCCCC1)c1ccc(Cl)nc1 was run?
Its inhibition is inactive: 11.1%.

Which inhibition does the source give for CCCCn1nnnc1C(c1ccc(OC)cc1)N1CCC(n2c(=O)[nH]c3ccccc32)CC1 (stereo unspecified) here?
Its inhibition is inactive: 13.9%.

With CCOC(=O)N1CCC(Nc2ccc(OC)cc2)CC1 as the compound, how does the inhibition read?
Its inhibition is inactive: 21.5%.

Which inhibition does the source give for COc1ccc(Cl)cc1C(=O)NCC1(N2CCOCC2)CCCCC1 here?
The inhibition was inactive: 0.6%.

Which inhibition does the source give for O=c1[nH]c2ccccc2n1C1CCN(C(c2cc3ccccc3o2)c2nnnn2C2CCCCC2)CC1 (stereo unspecified) here?
The inhibition was inactive: 14.4%.

With O=C(OC1CN2CCC1CC2)C1c2ccccc2Oc2ccccc21 (stereo unspecified) as the compound, how does the inhibition read?
Its inhibition is inactive: -50.8%.

Which inhibition does the source give for N#CC1(Nc2ccccc2)CCN(Cc2ccccc2)CC1 here?
The inhibition was inactive: 26.5%.

Which inhibition does the source give for O=C(NCC1(N2CCCCC2)CCCCC1)c1ccc(Cl)s1 here?
The inhibition was inactive: 6.1%.

Which inhibition does the source give for CCCCn1nnnc1C(c1cccs1)N1CCC(n2c(=O)[nH]c3ccccc32)CC1 (stereo unspecified) here?
Its inhibition is inactive: 12.6%.

With CCCCn1nnnc1C(CC)N1CCC(n2c(=O)[nH]c3ccccc32)CC1 (stereo unspecified) as the compound, how does the inhibition read?
The inhibition was inactive: 16%.

How did the inhibition turn out when O=C(NCC1(N2CCCCC2)CCCCC1)c1cccs1 was run?
The inhibition was inactive: 4%.

With O=C(NCC1(N2CCCCC2)CCCCC1)c1ccc(=O)[nH]c1 as the compound, how does the inhibition read?
The inhibition was inactive: 14.6%.

Which inhibition does the source give for CCC(c1nnnn1C1CCCC1)N1CCC(n2c(=O)[nH]c3ccccc32)CC1 (stereo unspecified) here?
Its inhibition is inactive: 11.3%.

COc1ccc(C(=O)NCC2(N3CCCCC3)CCCCC2)c(OC)c1OC was tested. Which inhibition did it give?
Its inhibition is inactive: 5.2%.

Which inhibition does the source give for CC(C)(C)OC(=O)N1CCC(N(C(=O)c2ccccc2)c2ccc(F)cc2)CC1 here?
Its inhibition is inactive: 9.7%.

Which inhibition does the source give for COc1ccc(C(=O)NCC2(N3CCCCC3)CCCCC2)cc1 here?
The inhibition was inactive: 6.4%.

How did the inhibition turn out when Cc1cccc(NC2(C#N)CCN(Cc3ccccc3)CC2)c1 was run?
Its inhibition is inactive: 10%.

How did the inhibition turn out when CSc1ccccc1C(=O)NCC1(N2CCCCC2)CCCCC1 was run?
The inhibition was inactive: 15.6%.

With O=c1[nH]c2ccccc2n1C1CCN(C(c2ccccc2)c2nnnn2C2CCCCC2)CC1 (stereo unspecified) as the compound, how does the inhibition read?
Its inhibition is inactive: 9.8%.

O=c1[nH]c2ccccc2n1C1CCN(C(c2cccc3ccccc23)c2nnnn2C2CCCC2)CC1 (stereo unspecified) was tested. Which inhibition did it give?
The inhibition was inactive: 10%.

How did the inhibition turn out when COc1cc(C(=O)NCC2(N(C)C)CCCCC2)ccc1OC(F)F was run?
Its inhibition is inactive: 17.7%.

With CCOC(=O)N1CCC(Nc2cccc(C)c2)CC1 as the compound, how does the inhibition read?
The inhibition was inactive: 0.9%.

Which inhibition does the source give for CCOc1ccc(C)cc1CN(CCCl)CCCl here?
The inhibition was inactive: 16.7%.

O=C1CCN(Cc2ccccc2)CC1 was tested. Which inhibition did it give?
The inhibition was inactive: 0.5%.

How did the inhibition turn out when CC(C)(C)n1nnnc1C(c1ccccc1)N1CCC(n2c(=O)[nH]c3ccccc32)CC1 (stereo unspecified) was run?
The inhibition was inactive: 23.2%.

CCOC(=O)N1CCC(Nc2ccc(F)cc2)CC1 was tested. Which inhibition did it give?
The inhibition was inactive: 17.3%.

How did the inhibition turn out when COc1ccc(NC2CCN(CCc3ccccc3)CC2)c(OC)c1 was run?
The inhibition was inactive: 7.5%.

For O=C(NCC1(N2CCCCC2)CCCCC1)c1ccc(F)cc1, which inhibition is on record?
Its inhibition is inactive: 4.1%.

How did the inhibition turn out when CCCCOc1ccc(C(=O)NCC2(N3CCOCC3)CCCCC2)cc1 was run?
Its inhibition is inactive: -3.3%.

O=P1(N(CCCl)CCCl)SCCCS1 was tested. Which inhibition did it give?
The inhibition was inactive: 9.8%.

With CCCCn1nnnc1C(c1cc2ccccc2o1)N1CCC(n2c(=O)[nH]c3ccccc32)CC1 (stereo unspecified) as the compound, how does the inhibition read?
The inhibition was inactive: 31%.

O=C(NCC1(N2CCCCC2)CCCCC1)c1cccc(C(F)(F)F)c1 was tested. Which inhibition did it give?
Its inhibition is inactive: 12.6%.

With CCCCn1nnnc1C(c1cccc2ccccc12)N1CCC(n2c(=O)[nH]c3ccccc32)CC1 (stereo unspecified) as the compound, how does the inhibition read?
The inhibition was inactive: 1.9%.

For COc1ccc(NC2CCN(C(=O)OC(C)(C)C)CC2)cc1, which inhibition is on record?
The inhibition was inactive: 13.1%.

How did the inhibition turn out when CC(C)c1ccc(C(=O)NCC2(N3CCOCC3)CCCCC2)cc1 was run?
Its inhibition is inactive: 3%.

CN1CCN(CCOC(=O)C(O)(c2ccccc2)c2ccccc2)CC1 was tested. Which inhibition did it give?
The inhibition was inactive: 17.8%.

How did the inhibition turn out when O=C(NCC1(N2CCOCC2)CCCCC1)c1cc(=O)[nH]c2ccccc12 was run?
Its inhibition is inactive: -53.9%.

How did the inhibition turn out when COc1cc(C(=O)NCC2(N3CCCCC3)CCCCC2)ccc1OC(F)F was run?
Its inhibition is inactive: 4%.

With O=C(NCC1(N2CCCCC2)CCCCC1)c1ccc(OC(F)F)cc1 as the compound, how does the inhibition read?
Its inhibition is inactive: -1.7%.

CC(C)(C)n1nnnc1C(c1ccccc1OC(F)(F)F)N1CCC(n2c(=O)[nH]c3ccccc32)CC1 (stereo unspecified) was tested. Which inhibition did it give?
Its inhibition is inactive: 2.2%.

Which inhibition does the source give for CSc1ccc(C(=O)NCC2(N3CCOCC3)CCCCC2)cc1 here?
The inhibition was inactive: 0.8%.

With O=C(NCC1(N2CCCCC2)CCCCC1)c1cccc([N+](=O)[O-])c1 as the compound, how does the inhibition read?
Its inhibition is inactive: 10.5%.

Which inhibition does the source give for N#CC1(Nc2ccccc2)CCN(CCc2ccccc2)CC1 here?
The inhibition was inactive: 7.1%.

For O=c1[nH]c2ccccc2n1C1CCN(C(c2ccccc2OC(F)(F)F)c2nnnn2C2CCCC2)CC1 (stereo unspecified), which inhibition is on record?
The inhibition was inactive: 8.6%.

For CCN1CCC(Nc2ccc(Cl)cc2)CC1, which inhibition is on record?
The inhibition was inactive: 5.3%.

How did the inhibition turn out when O=C(NCC1(N2CCCCC2)CCCCC1)c1cncc(Br)c1 was run?
The inhibition was inactive: 5.1%.

How did the inhibition turn out when CN1CCC(Nc2cccc(F)c2)CC1 was run?
Its inhibition is inactive: 12.8%.

Which inhibition does the source give for CCCOc1ccc(C(=O)NCC2(N(C)C)CCCCC2)cc1OC here?
Its inhibition is inactive: 7.6%.

Which inhibition does the source give for Cc1ccc(C(=O)NCC2(N(C)C)CCCCC2)o1 here?
Its inhibition is inactive: 22.3%.

COc1ccc(C(c2nnnn2C2CCCC2)N2CCC(n3c(=O)[nH]c4ccccc43)CC2)cc1 (stereo unspecified) was tested. Which inhibition did it give?
Its inhibition is inactive: 11.1%.

CN(C)c1cccc(C(=O)NCC2(N3CCCCC3)CCCCC2)c1 was tested. Which inhibition did it give?
The inhibition was inactive: -178%.

COc1ccc(CN(CCCl)CCCl)cc1Cl was tested. Which inhibition did it give?
The inhibition was inactive: 7.1%.

For CC(C)c1ccc(NC2CCN(C(=O)OC(C)(C)C)CC2)cc1, which inhibition is on record?
The inhibition was inactive: 7.9%.

CCCCn1nnnc1C(c1ccccc1OC(F)(F)F)N1CCC(n2c(=O)[nH]c3ccccc32)CC1 (stereo unspecified) was tested. Which inhibition did it give?
Its inhibition is inactive: 11.6%.

With CCCCn1nnnc1C(c1ccnc2ccccc12)N1CCC(n2c(=O)[nH]c3ccccc32)CC1 (stereo unspecified) as the compound, how does the inhibition read?
The inhibition was inactive: 13.6%.

CCC(c1nnnn1C(C)(C)C)N1CCC(n2c(=O)[nH]c3ccccc32)CC1 (stereo unspecified) was tested. Which inhibition did it give?
Its inhibition is inactive: 15.4%.

With O=C(NCC1(N2CCOCC2)CCCCC1)c1cc(F)c(F)cc1Cl as the compound, how does the inhibition read?
The inhibition was inactive: 10%.

COc1cc(OC)c(C(=O)NCC2(N(C)C)CCCCC2)cc1OC was tested. Which inhibition did it give?
The inhibition was inactive: 6.1%.
